## Apparent affinities of Ab-14 variants for a coronavirus HR2 peptide

Reference: Engelhart et al. 2022, doi:10.1038/s41597-022-01779-4. File: FLAb, binding data.

Target: peptide PDVDLGDISGINAS, taken from heptad repeat 2 (HR2) of SARS-CoV-2 spike.

Each scFv is VH, the linker GGGGSGGGGSGGGGS, VL, as in the parent Ab-14, and differs from it in the CDRs of the heavy chain only.
VH: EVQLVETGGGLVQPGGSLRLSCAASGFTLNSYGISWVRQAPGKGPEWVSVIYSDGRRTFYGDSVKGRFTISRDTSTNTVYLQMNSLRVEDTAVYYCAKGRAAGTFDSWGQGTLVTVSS
VL: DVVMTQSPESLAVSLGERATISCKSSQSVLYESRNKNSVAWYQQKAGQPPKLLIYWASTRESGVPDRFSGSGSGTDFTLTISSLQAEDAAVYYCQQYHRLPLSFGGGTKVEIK

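Phage display of a naive human antibody library on the peptide gave the parent. The library (AAYL49) carries one to three amino acid substitutions per variant, with no insertions or deletions. The scFvs were displayed on barcoded MATa yeast, the peptide on MATalpha yeast. The frequency of each diploid, read from paired DNA barcodes, reflects how well the two displayed proteins bind. The ratio of observed to expected reads was calibrated, replicate by replicate, on BCL2-family standards whose Kd was known from biolayer interferometry. The assay was run in three technical replicates.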

Each variant is given by its three heavy chain CDRs, as the data file delimits them; those of the parent are GFTLNSYGIS, VIYSDGRRTFYGDSVK, GRAAGTFDS. Values are log10 of the apparent Kd in nM; lower means stronger binding. The mean shown is taken over the replicates in which the pair was detected. Where no diploid with the target was found in that replicate, the entry reads "ND": below detection, most likely a poor binder, though not proof of it. Background: pairings of library AAYL49 with three empty control strains gave a value in 15% of cases (median 4.06, 5th percentile 2.83). Values in that range, when seen in few replicates, are hard to tell from nonspecific mating. The control count says in how many pairings with the empty strains this scFv gave a signal, with their mean in brackets.

CDR-H1,CDR-H2,CDR-H3,log10 Kd (nM) by replicate,"mean, log10 nM",empty controls
GFTLNSYGIS,VIYSDGRRTFYGDSVK,GRAAGTRDS,1.59 / 2.15 / 2.35,2.03,0/9
GFTHNSYGIS,VINSDGRRTFAGDSVK,GRAAGTFDS,ND / ND / ND,ND,1/9 (2.17)
GFTLNSYGIS,VIYKDGRRIFYGDSVV,GRAAGTFDS,ND / 3.64 / ND,3.64,2/9 (4.19)
YFTLNSYRIS,VIYSDGRRTFYGDSVK,GRAAGTQDS,ND / ND / 4.89,4.89,1/9 (3.06)
GFTLNSYGIS,VIYSDGRRTFYGDSVV,GRAACTFDC,ND / ND / ND,ND,0/9
GFTLNSYGIL,VIYSHGRRTFYGDSVK,HRAAGTFDS,4.80 / 3.62 / 6.60,5.01,4/9 (4.99)
GFELISYGIS,VIYSDGRRTFYGDYVK,GRAAGTFDS,3.86 / 2.81 / 3.37,3.35,0/9
LFTLNSYGIS,VIYSDGRRTFYGDSVK,GRATGTFDT,3.82 / 3.45 / 3.30,3.52,7/9 (4.98)
GFTLNSYGIS,VIYSGGRRFFYGDSVT,GRAAGTFDS,ND / ND / ND,ND,1/9 (3.56)
GFTLNSYGAS,VIYSDGRRTEYGDSVK,GRAAGTFTS,4.33 / ND / ND,4.33,2/9 (5.31)
GFTLNSYGHS,VIYSDGRRTFYGDSVK,GRCAGTFDS,4.57 / 5.60 / ND,5.08,6/9 (4.72)
GFTLNSYGIM,VIYSDGHRTFYGPSVK,GRAAGTFDS,ND / ND / ND,ND,0/9
GFTLNSYGIS,VIYSPGRRTFYGDSVK,HRAQGTFDS,ND / ND / ND,ND,0/9
GFTDNSYGIS,VIYSHGRRTFYGDDVK,GRAAGTFDS,ND / 2.61 / ND,2.61,4/9 (4.20)
GDTLNSYGIK,VIYSDGGRTFYGDSVK,GRAAGTFDS,ND / ND / ND,ND,0/9
GFTLNSYGID,VQYSDGRRTFYGDSVK,GRAAFTFDS,ND / ND / ND,ND,1/9 (2.82)
GDTLNSYGIS,VIYSDGRRTFYGDSVK,GRAKGTFDV,ND / ND / ND,ND,0/9
GFTLNSYGIS,MIYSDVRRTFYGDSVK,GRAAGTFDS,ND / ND / ND,ND,0/9
GFTLNSYGIS,VIYSVGRRTFYGASVK,GRAAGTFDS,ND / ND / ND,ND,0/9
GFTLNSYGIS,VIYSDGLRTFYGDSVK,GRAACTEDS,5.11 / ND / 3.90,4.51,0/9
GFTLNSYGIS,VIYSWERRTFYGVSVK,GRAAGTFDS,ND / ND / ND,ND,1/9 (4.27)
GFTLNSYGIS,VIYSDGERTFYGDKHK,GRAAGTFDS,ND / ND / ND,ND,0/9
GFTLNSYGWP,VIYSDGRRTFYGDSVK,IRAAGTFDS,ND / ND / ND,ND,0/9
GFTLNSYLIS,VIYSDGRRTFYGCSVK,GRAAGTFDA,2.76 / ND / ND,2.76,0/9
GFTLNAYRIS,VIYSDGRRTFYGDSVK,GAAAGTFDS,2.97 / ND / ND,2.97,0/9
GFTLNSYGIS,VIYSIGRTTFYGDSVD,GRAAGTFDS,4.60 / ND / ND,4.60,0/9
GFTLNSYGES,VIYSDGRRTFYGNSVK,GREAGTFDS,ND / ND / ND,ND,1/9 (2.87)
GFTLNSYFIS,VIYFDGRRDFYGDSVK,GRAAGTFDS,ND / 3.40 / ND,3.40,6/9 (4.44)
GFTLNSYGIS,VIYSDGRRTHYGDSVK,GRAAGTFDS,1.04 / 1.12 / 1.25,1.13,2/9 (4.15)
GFILNSYFIS,VIYSDGRRTFYGDSVK,GRAAGTFSS,ND / ND / ND,ND,0/9
GFTLNSYGIS,VIYSDGRRTFYGDSKK,GRAAGTCDS,ND / ND / ND,ND,1/9 (3.97)
GFTLRSYGIS,VIYSDGRRTFYHDSVK,GRAYGTFDS,ND / 3.94 / 2.55,3.24,3/9 (2.64)
GCTLNSYGIS,VFYSDGRRTFYGDSVK,GRAAVTFDS,ND / ND / ND,ND,0/9
GNTLLSYGIS,VIYSDGRRTFYGDSVK,RRAAGTFDS,3.79 / 2.91 / 2.88,3.20,3/9 (4.16)
GFTLNSYGDS,VIYSDARRTVYGDSVK,GRAAGTFDS,ND / ND / ND,ND,0/9
GFTLASYGIS,VIHSDGRRTFYGDSVK,GRAAGTFDS,ND / ND / 5.52,5.52,2/9 (3.69)
GFELNSYGIS,VIYSDYRRTFYGDSVK,GRAAGAFDS,ND / ND / ND,ND,1/9 (3.05)
GFTKNSYGIS,VIWSDGRRTFYGDSVK,WRAAGTFDS,ND / 3.85 / ND,3.85,1/9 (4.24)
GFTLNSYGIS,VIYSDGRRTMYGDSVK,GQAAGTFDH,ND / ND / ND,ND,3/9 (4.45)
GFTLNSYGIS,VQYSNGRRTFYGDSVK,GRAAGTFDS,ND / ND / ND,ND,1/9 (3.73)
GFTLNSYGIS,VIYSDGRRLFYIDSVK,GRAAGTFFS,ND / ND / ND,ND,1/9 (4.63)
GFTDNSYGIS,VGYWDGRRTFYGDSVK,GRAAGTFDS,3.42 / ND / ND,3.42,2/9 (4.95)
DFTLNGYGIS,VIYSDGRRTFYGDSVK,GRAAGTFFS,ND / ND / ND,ND,2/9 (3.78)

From the list, the first 4 with no signal in any replicate:

CDR-H1,CDR-H2,CDR-H3,log10 Kd (nM) by replicate,"mean, log10 nM",empty controls
GFTHNSYGIS,VINSDGRRTFAGDSVK,GRAAGTFDS,ND / ND / ND,ND,1/9 (2.17)
GFTLNSYGIS,VIYSDGRRTFYGDSVV,GRAACTFDC,ND / ND / ND,ND,0/9
GFTLNSYGIS,VIYSGGRRFFYGDSVT,GRAAGTFDS,ND / ND / ND,ND,1/9 (3.56)
GFTLNSYGIM,VIYSDGHRTFYGPSVK,GRAAGTFDS,ND / ND / ND,ND,0/9